Measured values from patent publication US20260116867A1, “PROTEOLYSIS TARGETING CHIMERAS FOR HUMAN PREGNANE X RECEPTOR AND FOR DEGRADATION OF GSPT1” (ST. JUDE CHILDREN'S RESEARCH HOSPITAL, priority 2022, published 2026).

By UniProt entry, the sequences of proteins in these tests, tags left out. Residues count along the entry.
UniProt O75469, whole entry: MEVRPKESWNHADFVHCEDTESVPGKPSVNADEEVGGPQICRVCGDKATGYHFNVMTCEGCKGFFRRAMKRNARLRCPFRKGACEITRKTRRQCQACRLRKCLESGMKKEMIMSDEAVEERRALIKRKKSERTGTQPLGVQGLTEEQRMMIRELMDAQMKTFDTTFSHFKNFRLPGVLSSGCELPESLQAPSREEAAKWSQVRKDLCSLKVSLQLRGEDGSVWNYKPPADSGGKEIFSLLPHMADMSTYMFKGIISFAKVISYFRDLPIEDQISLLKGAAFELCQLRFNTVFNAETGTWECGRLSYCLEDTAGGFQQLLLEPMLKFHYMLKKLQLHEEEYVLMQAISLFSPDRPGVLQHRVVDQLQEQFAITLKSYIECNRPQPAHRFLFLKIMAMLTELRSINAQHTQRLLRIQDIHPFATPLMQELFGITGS
UniProt P15170, 1-637 isoform 3: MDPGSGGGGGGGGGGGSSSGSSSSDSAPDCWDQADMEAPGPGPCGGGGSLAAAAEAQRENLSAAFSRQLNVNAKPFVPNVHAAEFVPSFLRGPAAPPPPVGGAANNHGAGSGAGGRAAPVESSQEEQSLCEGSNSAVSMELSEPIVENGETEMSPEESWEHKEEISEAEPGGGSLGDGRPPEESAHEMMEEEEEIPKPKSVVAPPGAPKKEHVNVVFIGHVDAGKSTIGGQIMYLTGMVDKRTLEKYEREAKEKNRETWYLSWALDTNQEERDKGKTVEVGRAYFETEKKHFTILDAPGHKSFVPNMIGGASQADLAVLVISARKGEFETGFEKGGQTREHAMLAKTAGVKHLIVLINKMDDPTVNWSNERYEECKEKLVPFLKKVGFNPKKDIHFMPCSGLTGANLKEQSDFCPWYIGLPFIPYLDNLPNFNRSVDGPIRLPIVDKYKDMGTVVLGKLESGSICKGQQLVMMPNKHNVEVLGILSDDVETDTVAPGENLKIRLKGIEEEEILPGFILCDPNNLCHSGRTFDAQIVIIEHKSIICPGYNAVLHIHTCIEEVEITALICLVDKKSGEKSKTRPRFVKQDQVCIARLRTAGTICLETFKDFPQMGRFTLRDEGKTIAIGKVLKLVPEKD

What was measured:
hPXR = hPXR (Homo sapiens, UniProt O75469); assay: cell-based hPXR inverse agonistic assay
His-CRBN/DDB1 = His-CRBN/DDB1 (Homo sapiens, UniProt Q96SW2); assay: TR-FRET CRBN competitive binding assay (BODIPY FL thalidomide probe); details: FIG. 9D
GSPT1 = GSPT1 (Homo sapiens, UniProt P15170+Q96SW2); assay: Western blot of GSPT1 protein in SNU—C4 3xFLAG-PXR KI cells

SMILES | Inverse agonist (% inhibition at 10 μM) (hPXR; 10 μM, SPA70 at 10 μM as 100% inhibition, DMSO (0.3%) as 0%) | IC50 (hPXR; read-out: Inverse agonist (IC50/μM), NA = no IC50 within concentration range tested (highest 30 μM)) [µM] | CRBN binding (in words) (His-CRBN/DDB1) | GSPT1 Loss at 10 μM (% ± SD) (GSPT1; 10 μM compound, calculated from western blots FIG. 9A) [%] | GSPT1 degradation (in words) (GSPT1; western blot, SNU—C4 3xFLAG-PXR KI cells)
COc1ccc(OC)c(-n2nnc(C(=O)Nc3cc(OCCCc4cn(CCCCNC(=O)COc5cccc6c5C(=O)N(C5CCC(=O)NC5=O)C6=O)nn4)cc(C(C)(C)C)c3)c2C)c1 (centres unmarked) | (42 ± 6)% | 10.3 |  |  | 
COc1ccc(OC)c(-n2nnc(C(=O)Nc3cc(NC(=O)Nc4cccc5c4C(=O)N(C4CCC(=O)NC4=O)C5=O)cc(C(C)(C)C)c3)c2C)c1 (centres unmarked) |  |  | greatly reduced CRBN binding | 85 ± 2.2 | strong GSPT1 degradation activity
